Target: T1, Solute carrier family 15 member 1 (Homo sapiens) (UniProt P46059)
T1 sequence (whole entry): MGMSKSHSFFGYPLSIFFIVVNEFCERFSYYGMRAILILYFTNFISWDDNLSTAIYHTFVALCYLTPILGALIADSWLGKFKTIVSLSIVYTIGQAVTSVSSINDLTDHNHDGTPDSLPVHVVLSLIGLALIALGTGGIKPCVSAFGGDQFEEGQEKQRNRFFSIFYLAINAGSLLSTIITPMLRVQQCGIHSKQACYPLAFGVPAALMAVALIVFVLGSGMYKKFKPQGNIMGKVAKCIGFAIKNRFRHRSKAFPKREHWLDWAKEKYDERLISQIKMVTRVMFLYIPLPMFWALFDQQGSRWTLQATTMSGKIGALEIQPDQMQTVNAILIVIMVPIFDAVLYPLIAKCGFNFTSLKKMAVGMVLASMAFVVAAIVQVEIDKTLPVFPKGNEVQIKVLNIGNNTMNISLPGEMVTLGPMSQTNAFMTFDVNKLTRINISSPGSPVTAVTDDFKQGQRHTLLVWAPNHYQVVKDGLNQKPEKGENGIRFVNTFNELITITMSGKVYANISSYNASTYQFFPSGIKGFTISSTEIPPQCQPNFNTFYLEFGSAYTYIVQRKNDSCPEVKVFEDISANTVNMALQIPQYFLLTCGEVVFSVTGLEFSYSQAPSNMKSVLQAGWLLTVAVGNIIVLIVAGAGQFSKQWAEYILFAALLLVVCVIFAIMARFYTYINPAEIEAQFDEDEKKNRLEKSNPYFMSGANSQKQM
Test: TP_TRANSPORTER: inhibition of Gly-Sar uptake (Gly-Sar: 20 uM, Ala-Pro-Gly: 10000 uM) in PEPT1-expressing HeLa cells
Assay type: functional, cell-based
Design: scale not given: the % may be the effect or the level left

- Activity: 9%
Structure (SMILES): C[C@H](N)C(=O)N1CCC[C@H]1C(=O)NCC(=O)O

Reference: ChEMBL document CHEMBL2074255, “Human intestinal H+/peptide cotransporter. Cloning, functional expression, and chromosomal localization” (J Biol Chem, 1995)
